# Assay results published in patent publication US20250304645A1, “Prodrugs of GLP-1 Polypeptide and Uses Thereof” (Novo Nordisk A/S, priority 2022, published 2025).
# Columns and labels:
# [1] = Prodrug to drug conversion half-life in vitro in PBS at pH 7.4 and 37° C. (UPLC-UV-MS); assay type: physicochemical; conditions: buffer, pH 7.4, prodrug to parent drug conversion, PBS pH 7.4, 37° C., first order T½
# Description: The assay was performed to investigate the conversion half-life of prodrug to drug of the prodrugs of the invention.
# Peptide stock solutions were prepared by dissolving freeze-dried powder in PBS buffer to a target of 200 μM. PBS-buffer was Dulbecco's Phosphate Buffered Saline without CaCl2 and MgCl2, gibco 14190-094 adjusted to pH=7.4. The pH of the peptide stock solutions was adjusted to 7.4 with 0.02 M HCl or 0.02M NaOH. Samples were filled in Agilent HPLC vials with fixed insert. Vials were capped to prevent evaporation. The HPLC vials were incubated at 37° C. and samples were withdrawn at different time points over a period of 2 weeks, flash frozen at −80° C., and stored at −20° C. until analysis.
# Sample analysis was carried out using UPLC coupled to UV detection at 215 nm and MS (UPLC-UV-MS). One μl of sample was injected on to a Waters Acquity UPLC with a flow-through-needle injection system and on to a Waters Acquity CSH C18 column (1*150 mm), with a particle size of 1.7 μm and held at 55° C. A flow-rate of 100 μl/min was delivered with a Binary solvent manager pump having 0.1% formic acid in water as solvent A and 0.1% formic acid in acetonitrile as solvent B. Gradient elution was carried out using 15-32% B from 0 to 4 min followed by 32 to 48% B from 4 to 54 min. […]
# [2] = Oral bioavailability: exposure following oral administration of SNAC-based tablets in Beagle dogs; conditions: dog, in vivo
# Description: This assay was performed to measure the oral bioavailability of a compound. The assay determined the exposure of test compound following oral administration in Beagle dogs as described by relevant pharmacokinetic parameters and plasma concentration curves. […] The test compound was spray-dried as neutral sodium salt (pH 7-8). Dry granulation was carried out by roller compaction on a […]. […] Determination of the absorption following oral administration: eight (8) male Beagle dogs, 1 to 5 years of age and weighing approximately 10-12 kg at the start of the studies, were used. The dogs were group-housed in pens (12 hours light:12 hours dark), and fed individually and restrictedly once daily with Royal Canin Medium Adult dog (Royal Canin Products, China Branch, or Brogaarden A/S, Denmark). Exercise and group social were permitted daily, whenever possible. The dogs were used for repeated pharmacokinetic studies with a suitable wash-out period between successive dosing. An appropriate acclimatisation period was given prior to initiation of the first pharmacokinetic study. All handling, dosing and blood sampling of the animals were performed by trained and skilled staff. […] Bioanalysis was carried out as follows: plasma concentrations of test compound were assayed by plasma protein precipitation and analysed by liquid chromatography-mass spectrometry (LC-MS). […]
smiles,measurement,setting,value
"CCCCCCCCCCCCCCCCCC(=O)NCCCC[C@@H](N)C(=O)N(C)CC(=O)N[C@@H](Cc1c[nH]cn1)C(=O)NC(C)(C)C(=O)N[C@@H](CCC(=O)O)C(=O)NCC(=O)N[C@H](C(=O)N[C@@H](Cc1ccccc1)C(=O)N[C@H](C(=O)N[C@@H](CO)C(=O)N[C@@H](CC(=O)O)C(=O)N[C@H](C(=O)N[C@@H](CO)C(=O)N[C@@H](CO)C(=O)N[C@@H](Cc1ccc(O)cc1)C(=O)N[C@@H](CC(C)C)C(=O)N[C@@H](CCC(=O)O)C(=O)NCC(=O)N[C@@H](CCC(N)=O)C(=O)N[C@@H](C)C(=O)N[C@@H](C)C(=O)N[C@@H](CCCCNC(=O)COCCOCCNC(=O)COCCOCCNC(=O)CC[C@H](NC(=O)CCCCCCCCCCCCCCCCC(=O)O)C(=O)O)C(=O)N[C@@H](CCC(=O)O)C(=O)N[C@@H](Cc1ccccc1)C(=O)N[C@H](C(=O)N[C@@H](C)C(=O)N[C@@H](Cc1c[nH]c2ccccc12)C(=O)N[C@@H](CC(C)C)C(=O)N[C@H](C(=O)N[C@@H](CCCNC(=N)N)C(=O)NCC(=O)N[C@@H](CCCNC(=N)N)C(=O)NCC(=O)O)C(C)C)[C@@H](C)CC)C(C)C)[C@@H](C)O)[C@@H](C)O [Chem. 36, N{ε^26}-[2-[2-[2-[[2-[2-[2-[[(4S)-4-carboxy-4-(17-carboxyheptadecanoylamino)butanoyl]amino]ethoxy]ethoxy]acetyl]amino]ethoxy]ethoxy]acetyl]-N{ε}-(octadecanoyl)D-Lys-Sar-[Aib8,Arg34]-GLP-1-(7-37)-peptide]",half-life,[1],60 h
same,AUC/Dose,[2],1.6 kg·h/L
same,Cmax/Dose,[2],0.10 kg/L
